Columns and labels:
[1] = Plasma plus brain concentrations at 1 h after IV dose; assay type: in vivo; details: CD1 mice, IV 10 mg/kg
Experimental: Compounds with acceptable PK were dosed IV at 10 mg/kg and plasma plus brain
concentrations measured at 1h in CD1 mice (3 mice per cohort, Table 2). […]

Sequences of proteins named here, by UniProt entry; tags and fusion partners are left off.
UniProt P35367, whole entry: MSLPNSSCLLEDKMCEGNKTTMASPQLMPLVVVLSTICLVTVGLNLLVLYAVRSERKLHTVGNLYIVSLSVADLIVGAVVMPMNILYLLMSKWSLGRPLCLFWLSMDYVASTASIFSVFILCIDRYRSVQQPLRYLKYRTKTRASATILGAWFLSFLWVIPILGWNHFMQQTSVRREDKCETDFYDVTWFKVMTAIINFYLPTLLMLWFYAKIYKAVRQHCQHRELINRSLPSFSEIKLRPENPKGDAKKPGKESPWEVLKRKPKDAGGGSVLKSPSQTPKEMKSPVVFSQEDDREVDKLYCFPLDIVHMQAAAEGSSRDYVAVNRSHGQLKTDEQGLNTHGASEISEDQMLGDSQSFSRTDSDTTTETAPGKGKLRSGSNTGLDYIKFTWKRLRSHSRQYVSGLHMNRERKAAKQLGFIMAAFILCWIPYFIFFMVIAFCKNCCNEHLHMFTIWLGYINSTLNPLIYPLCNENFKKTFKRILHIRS

H1 receptor = target: T1, H1 receptor (Homo sapiens, UniProt P35367); assay: PDSP secondary binding, H1; parameters: species or system human or rodent; details: secondary assay
T1 construct: expressed in transfected cells
Experimental: GPCR panel: Screening against the receptors within the PDSP panel offers an assessment of off-target pharmacological activity at cloned human or rodent CNS receptors, channels, and transporters that could confound CNS-related phenotypes. A total of 46–47 primary binding assays were run in quadruplicate on these compounds at 10 μM, with follow-up secondary binding assays in 11-point dose-response in triplicate for select compounds versus select receptors. Secondary binding assays were executed for all receptors where test compound displaced an average of >50% of radio-labeled standard ligand. As an exception, no secondary assays were carried out for H3, PBR, or GABAA. […]

[2] = mouse, IV, 3.0 mg/kg, published PK values; cited from earlier work

Substance: MDL 28170 [UNC10302675A]
- Brain: plasma at 1 hour (10 mg/kg) [1]: 0.10
- Ki (H1 receptor; run 1): > 10000 nM
- LogKi 1 (H1 receptor; run 1, log Ki given with negative sign): > -5
- CL [2]: 41.8 mL/min/kg
- T1/2 [2]: 44.4 min
- Vss [2]: 1.23 L/kg

Source: article PMC9005681, “Use of AD Informer Set compounds to explore validity of novel targets in Alzheimer's disease pathology” (Alzheimer's & Dementia : Translational Research & Clinical …, 2022)
